In patent US10564159:

Molecular target: human TSH receptor (wild type), displayed on CHO-Rluc cells (human) (UniProt P16473)
Test: cell-based or functional assay

- luciferase RLU/Sec (net of 0 TSH), 10 µIU TSH/ml, CHO-Rluc cells, Starvation Medium HBSS-NaCl + 222 mM sucrose: 2190 RLU/Sec
- luciferase RLU/Sec (net of 0 TSH), 10 µIU TSH/ml, CHO-Rluc cells, Starvation Medium standard HBSS with 20 mM sucrose: 14400 RLU/Sec
- luciferase RLU/Sec (net of 0 TSH), 10 µIU TSH/ml, CHO-Rluc cells, Stimulation Medium HBSS-NaCl + 111 mM sucrose + 6% PEG-8000: 5980 RLU/Sec
- luciferase RLU/Sec (net of 0 TSH), 10 µIU TSH/ml, CHO-Rluc cells, Stimulation Medium HBSS-NaCl + 222 mM sucrose (no PEG): 1340 RLU/Sec
- luciferase RLU/Sec (net of 0 TSH), 10 µIU TSH/ml, CHO-Rluc cells, medium CHO Char: 5600 RLU/Sec
- luciferase RLU/Sec (net of 0 TSH), 10 µIU TSH/ml, CHO-Rluc cells, medium CHO GM: 782 RLU/Sec
- luciferase RLU/Sec (net of 0 TSH), 1000 µIU TSH/ml, CHO-Rluc cells, Starvation Medium HBSS-NaCl + 222 mM sucrose: 143000 RLU/Sec
- luciferase RLU/Sec (net of 0 TSH), 1000 µIU TSH/ml, CHO-Rluc cells, Starvation Medium standard HBSS with 20 mM sucrose: 157000 RLU/Sec
- luciferase RLU/Sec (net of 0 TSH), 1000 µIU TSH/ml, CHO-Rluc cells, Stimulation Medium HBSS-NaCl + 111 mM sucrose + 6% PEG-8000: 208000 RLU/Sec
- luciferase RLU/Sec (net of 0 TSH), 1000 µIU TSH/ml, CHO-Rluc cells, Stimulation Medium HBSS-NaCl + 222 mM sucrose (no PEG): 82500 RLU/Sec
- luciferase RLU/Sec (net of 0 TSH), 1000 µIU TSH/ml, CHO-Rluc cells, medium CHO Char: 229000 RLU/Sec
- luciferase RLU/Sec (net of 0 TSH), 1000 µIU TSH/ml, CHO-Rluc cells, medium CHO GM: 265000 RLU/Sec
- luciferase RLU/sec (net of 0 TSH), 10 µIU TSH/ml, CHO-Rluc cells starved with Stimulation Medium: -1150 RLU/sec
- luciferase RLU/sec (net of 0 TSH), 1000 µIU TSH/ml, CHO-Rluc cells starved with Stimulation Medium: 47500 RLU/sec
- luciferase RLU/sec (net of zero standard), 10 µIU bovine TSH, CHO-Rluc cells, method of Evans et al.: 4030 RLU/sec
- luciferase RLU/sec (net of zero standard), 1000 µIU bovine TSH, CHO-Rluc cells, method of Evans et al.: 223000 RLU/sec
- luciferase RLU/sec, bTSH 10 µIU/ml, CHO-Rluc cells: 5920 RLU/sec
- luciferase RLU/sec, bTSH 25 µIU/ml, CHO-Rluc cells: 20200 RLU/sec
- luciferase RLU/sec, bTSH 50 µIU/ml, CHO-Rluc cells: 34400 RLU/sec
- luciferase RLU/sec, bTSH 75 µIU/ml, CHO-Rluc cells: 54400 RLU/sec
- luciferase RLU/sec, bTSH 100 µIU/ml, CHO-Rluc cells: 62200 RLU/sec
- three S.D. sensitivity of the luciferase response of CHO-Rluc cells to bTSH: 1.3 µIU TSH/ml
Substance: bovine TSH (from UniProt P01217 25-120; P01223 21-132) (ligand)
